Measured values: patent publication US9556229B2, “Modification of peptides using a bis(thioether)arylbridge approach” (priority 2012, dated 2017)

System: HCT116 colorectal cancer cells

EC50: 179 µM
SMILES: CC(C)C[C@H](NC(=O)[C@H](C)NC(=O)[C@H](Cc1c[nH]c2ccccc12)NC(=O)[C@H](Cc1ccc(O)cc1)NC(=O)[C@H](CCC(=O)O)NC(=O)[C@H](C)NC(=O)[C@H](Cc1ccccc1)NC(=O)[C@H](CO)NC(=O)[C@@H](N)[C@@H](C)O)C(=O)N[C@@H](CC(C)C)C(=O)N[C@@H](CO)C(=O)N1CCC[C@H]1C(N)=O [PMI_M, reference compound]
